Source: patent US12011428B2, “Compositions and methods for stimulating ventilatory and/or respiratory drive” (priority 2022, dated 2024)

How the values were obtained:
[1] = system: adult male Sprague—Dawley rats; assay: Body temperature (BT), rectal thermistor probe; conditions: for Body temperature, Post-fentanyl: GSHee 100 μmol/kg IV-treated rats; for Body temperature, Change from Pre: GSHee-treated rats
[2] = system: adult male Sprague—Dawley rats; assay: Arterial blood gas measurements and A-a gradient; format: in vivo, rat; conditions: fentanyl 75 μg/kg IV in GSHee (100 μmol/kg IV)-pretreated rats; versus vehicle
[3] = system: adult male Sprague—Dawley rats; assay: Righting reflex (duration of fentanyl-induced impairment)
[4] = system: adult male Sprague—Dawley rats; assay: Radiant heat tail-flick (TF) antinociception assay; format: in vivo, rat; conditions: fentanyl 75 μg/kg IV after GSHee 100 μmol/kg IV; versus vehicle-pretreated
[5] = 5 min after fentanyl 75 μg/kg IV
[6] = 10 min after fentanyl 75 μg/kg IV
[7] = 15 min after fentanyl 75 μg/kg IV
[8] = 20 min after fentanyl 75 μg/kg IV
[9] = 25 min after fentanyl 75 μg/kg IV
[10] = 30 min after fentanyl 75 μg/kg IV

L-glutathione ethyl ester
Body temperature, Post-fentanyl [1, 5]: 37.9 ± 0.1
Body temperature, Change from Pre [1, 5]: 0.06 ± 0.09 °C
Body temperature, Post-fentanyl [1, 6]: 38.0 ± 0.1
Body temperature, Change from Pre [1, 6]: 0.17 ± 0.11 °C
Body temperature, Post-fentanyl [1, 7]: 38.0 ± 0.1
Body temperature, Change from Pre [1, 7]: 0.13 ± 0.10 °C
Body temperature, Post-fentanyl [1, 8]: 38.2 ± 0.1
Body temperature, Change from Pre [1, 8]: 0.31 ± 0.09 °C
Body temperature, Post-fentanyl [1, 9]: 38.2 ± 0.1
Body temperature, Change from Pre [1, 9]: 0.33 ± 0.10 °C
Body temperature, Post-fentanyl [1, 10]: 38.2 ± 0.1
Body temperature, Change from Pre [1, 10]: 0.31 ± 0.08 °C
fentanyl-induced changes in ABG chemistry and A-a gradient [2]: markedly smaller in magnitude and of substantially shorter duration
duration of the pronounced sedation elicited by fentanyl ([3]; GSHee-treated versus vehicle-treated rats): very similar
full return of the righting-reflex ([3]; fentanyl 75 μg/kg IV in GSHee (100 μmol/kg, IV)-treated rats, n=12): 54 ± 9 min
duration of the fentanyl-induced antinociception [4]: greater in GSHee-pretreated rats than in the vehicle-pretreated rats
